Results reported in patent US10953027B2, “Active agents and methods of their use for the treatment of metabolic disorders and nonalcoholic fatty liver disease” (Flagship Pioneering Innovations V, Inc., priority 2018, dated 2021).

Experiments:
Male FATZO mice = assay: In vivo FATZO DM2/obesity study (Example 5); details: 0.045% in diet, after 28 days; blood glucose 0-120 minutes
Male DIO mice = assay: In vivo evaluation for glucose disposal and lipidemia in DIO mice (Example 11); details: 0.045% in HFD, OGTT day 28, glucose 2.0 g/kg PO

SMILES: CN(CCOc1ccc(CC2SC(=O)NC2=O)cc1)c1ccccn1 (centres unmarked) [Rosiglitazone, rosiglitazone, reference compound]
- OGTT (AUC) (Male FATZO mice): 25222
- glucose AUC (0-120 min) (Male DIO mice): 24540.0 ± 806.3 mg/dL/min
